Measured values: ChEMBL document CHEMBL5034046, “Discovery of Small-Molecule CD33 Pre-mRNA Splicing Modulators” (ACS Med Chem Lett, 2022)

Protein sequences, listed by entry. Tags and fused reporters are not part of them. Residues count along the entry.
UniProt Q8NBP7, 31-152 limits assumed: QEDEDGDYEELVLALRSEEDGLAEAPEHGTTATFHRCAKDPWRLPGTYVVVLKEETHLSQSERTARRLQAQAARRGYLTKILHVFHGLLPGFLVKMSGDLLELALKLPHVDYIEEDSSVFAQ
UniProt Q8NBP7, 153-692 limits assumed: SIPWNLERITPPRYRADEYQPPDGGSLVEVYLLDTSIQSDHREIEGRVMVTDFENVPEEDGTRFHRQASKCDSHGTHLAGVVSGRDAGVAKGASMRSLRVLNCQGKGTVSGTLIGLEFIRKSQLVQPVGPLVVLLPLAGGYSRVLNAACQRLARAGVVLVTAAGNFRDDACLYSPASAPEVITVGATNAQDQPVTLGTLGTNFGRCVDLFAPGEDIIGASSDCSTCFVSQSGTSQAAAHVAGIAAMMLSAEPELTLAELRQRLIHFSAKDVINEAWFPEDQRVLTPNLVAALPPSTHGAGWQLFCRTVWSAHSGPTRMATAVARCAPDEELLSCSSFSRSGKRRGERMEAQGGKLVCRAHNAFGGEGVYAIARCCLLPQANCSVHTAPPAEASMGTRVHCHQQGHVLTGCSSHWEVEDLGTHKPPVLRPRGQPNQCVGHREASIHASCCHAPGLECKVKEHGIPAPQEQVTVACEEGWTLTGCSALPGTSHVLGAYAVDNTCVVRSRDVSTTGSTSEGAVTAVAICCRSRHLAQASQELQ

Molecular target: Proprotein convertase subtilisin/kexin type 9 (Homo sapiens, UniProt Q8NBP7)
Experiment: Inhibition of PCSK9 translation in human THP-1 cells by AlphaLISA assay
Assay type: cell-based

IC50 [nM] | Structure (SMILES)
750 | O=C(c1ccc(-n2nnc3cccnc32)cc1)N(c1ncccc1Cl)[C@@H]1CCCNC1
780 | Cc1cnc2c(c1)nnn2-c1ccc(C(=O)N(c2ncccc2Cl)[C@@H]2CCCNC2)cc1
